Values of other authors as cited in patent US7309497B2, “Injectable pharmaceutical composition for systematic administration of pharmacologically active ingredients” (Schwarz Pharma AG, priority 2000, dated 2007).

Settings: injected in an aqueous solution; cited from earlier work

Substance: insulin
- half-time value: about 6 minutes
